Values quoted from earlier work as cited in US20110313056A1 (BIO SYNTECH CANADA INC., priority 2005, published 2011).

Conditions: literature (Voet and Voet); cited from earlier work

Compound: O=P(O)(O)O [phosphate, inorganic phosphate]
- Ka3^P: ~12.4
